Results reported in US7842470B2, “Method for pharmacoperones correction of GnRHR mutant protein misfolding” (Oregon Health & Science University, priority 2001, dated 2010).

Test system: mouse and rat GnRHR bearing human HH mutations

Cc1cc(C)cc(-c2[nH]c3ccc(C(C)(C)C(=O)N4CC5CCC4CC5)cc3c2[C@H](C)CNCCc2ccncc2)c1 [IN3, (2S)-2-[5-[2-(2-azabicyclo[2.2.2]oct-2-yl)-1,1-dimethyl-2-oxoethyl]-2-(3,5-dimethylphenyl)-1H-indol-3-yl]-N-(2-pyridin-4-ylethyl)propan-1-amine]
concentration of IN3 that results in optimum rescue: 1 µg/mL
